The list shows a part of the results, in another mix than the full data. Active and inactive are the calls of the source.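 How the source made its calls: active means at 10 µM dose, at least 30% inhibition, measured as corrected fluorescence normalized to stimulator and neutral control wells; inactive means the rest.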

Protein sequences, listed by entry. Tags and fused reporters are not part of them.
UniProt Q96SD1, whole entry: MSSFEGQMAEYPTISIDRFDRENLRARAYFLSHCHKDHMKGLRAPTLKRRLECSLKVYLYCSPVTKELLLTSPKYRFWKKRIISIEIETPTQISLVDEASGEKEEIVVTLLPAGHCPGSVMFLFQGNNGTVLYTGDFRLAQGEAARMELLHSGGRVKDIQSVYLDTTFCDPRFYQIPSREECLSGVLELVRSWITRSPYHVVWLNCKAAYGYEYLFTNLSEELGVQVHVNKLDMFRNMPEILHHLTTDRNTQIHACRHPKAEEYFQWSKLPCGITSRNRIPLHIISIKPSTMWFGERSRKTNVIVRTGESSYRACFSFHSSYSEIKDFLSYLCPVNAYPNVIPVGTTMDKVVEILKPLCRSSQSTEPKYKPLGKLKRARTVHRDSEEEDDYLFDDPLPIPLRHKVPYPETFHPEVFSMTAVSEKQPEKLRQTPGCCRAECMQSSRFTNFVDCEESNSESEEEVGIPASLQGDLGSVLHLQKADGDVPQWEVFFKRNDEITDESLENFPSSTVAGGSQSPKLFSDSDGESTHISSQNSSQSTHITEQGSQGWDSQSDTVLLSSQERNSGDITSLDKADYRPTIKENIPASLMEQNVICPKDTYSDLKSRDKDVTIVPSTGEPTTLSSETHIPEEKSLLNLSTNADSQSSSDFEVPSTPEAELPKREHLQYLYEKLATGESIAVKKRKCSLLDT

The target of the assay is Protein artemis (Homo sapiens) (UniProt Q96SD1). In words: Artemis endonuclease inhibitors, primary screen, biochemical, fluorescence intensity, FAM/BHQ-1 hairpin substrate (AID 686954). The following applies: recombinant Artemis, quenched FAM hairpin cleavage fluorescence; at 10 µM; hits give high values.
Consider `c1ccc(CN2CCC(Nc3ccccc3)CC2)cc1`, for which the inhibition (as a rule, the change of the read-out against control, counted positive when it falls) was inactive: 5.76%.
The figure for `N/C(=N\O)c1c(N)no[n+]1[O-]` is inactive: -12.4%; for `CCC(CO)(C(=O)OC1CN2CCC1CC2)c1ccccc1` (stereo not given) it is inactive: -1%.
Turning to `N#CC1(Nc2ccccc2)CCN(CCc2ccccc2)CC1`, the inhibition is inactive: 2.98%.
For `O=C(NCC1(N2CCOCC2)CCCCC1)c1cc(=O)[nH]c2ccccc12` the value was inactive: -2.15%.

Values taken from PubChem BioAssay AID686954 (Sanford-Burnham Center for Chemical Genomics, 2013).
